Amino acid sequences for entries named in this document (tags omitted).
UniProt P13922, whole entry, looked up, stated change not applied: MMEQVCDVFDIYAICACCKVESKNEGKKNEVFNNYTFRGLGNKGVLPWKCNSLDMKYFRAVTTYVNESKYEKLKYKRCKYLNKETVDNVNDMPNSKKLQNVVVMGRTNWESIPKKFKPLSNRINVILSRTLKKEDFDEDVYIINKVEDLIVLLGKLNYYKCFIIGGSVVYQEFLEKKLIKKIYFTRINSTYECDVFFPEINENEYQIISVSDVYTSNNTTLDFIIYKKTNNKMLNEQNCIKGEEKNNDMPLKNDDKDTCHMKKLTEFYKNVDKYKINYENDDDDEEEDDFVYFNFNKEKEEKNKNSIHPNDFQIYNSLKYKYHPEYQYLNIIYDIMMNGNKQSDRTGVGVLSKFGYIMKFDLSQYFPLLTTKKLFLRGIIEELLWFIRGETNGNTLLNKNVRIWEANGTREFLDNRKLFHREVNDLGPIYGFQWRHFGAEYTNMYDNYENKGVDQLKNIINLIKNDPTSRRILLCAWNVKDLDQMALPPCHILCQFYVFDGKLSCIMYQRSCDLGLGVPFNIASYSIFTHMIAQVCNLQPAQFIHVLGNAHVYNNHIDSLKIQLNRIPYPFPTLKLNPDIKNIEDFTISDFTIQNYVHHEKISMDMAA

In ChEMBL document CHEMBL1133696, “Development of a lead inhibitor for the A16V+S108T mutant of dihydrofolate reductase from the cycloguanil-resistant strain (T9/94) of Plasmodium falciparum” (J Med Chem, 2000):

Key:
[1] = target: Bifunctional dihydrofolate reductase-thymidylate synthase (Plasmodium falciparum K1, UniProt P13922, A16V/S108T); assay: Inhibition constant (Ki mut) against A16V+S108T Mutant DHFRs of Plasmodium falciparum
[2] = target: Bifunctional dihydrofolate reductase-thymidylate synthase (Plasmodium falciparum K1) (UniProt P13922); assay: Evaluated for activity of compound relative to Cycloguanil
[3] = target: Bifunctional dihydrofolate reductase-thymidylate synthase (Plasmodium falciparum K1) (UniProt P13922); assay: Selectivity ratio of growth inhibition against Plasmodium falciparum TM4/8.2(wild-type) and T9/94(mutant); assay type: functional
[4] = target: Bifunctional dihydrofolate reductase-thymidylate synthase (Plasmodium falciparum K1) (UniProt P13922); assay: Ratio of inhibitory constant of mutant by wild-type DHFRs of Plasmodium falciparum
[5] = target: Bifunctional dihydrofolate reductase-thymidylate synthase (Plasmodium falciparum K1) (UniProt P13922); assay: Evaluated for activity of relative to Cycloguanil

Row | SMILES | Ki [1] | Relative activity [2] | IC50 ratio [3] | Ratio [4] | Relative activity [5]
1 | CC1N=C(N)N=C(N)N1c1cccc(Cl)c1 (configuration not stated) | 38.7 nM | 0.03 |  |  | 
2 | CC1(C)N=C(N)N=C(N)N1c1cccc(Cl)c1 | 340 nM | 0.3 | 4.97 | 92 | 2.5
